Laboratory results from PMC9886266, “New [1,2,4]triazolo[4,3-c]quinazolines as intercalative Topo II inhibitors: Design, synthesis, biological evaluation, and in silico studies” (PLOS ONE, 2023).

Amino acid sequences for entries named in this document (tags omitted). A change or cut given only in a name is not applied to a line headed by its entry.
UniProt P11388: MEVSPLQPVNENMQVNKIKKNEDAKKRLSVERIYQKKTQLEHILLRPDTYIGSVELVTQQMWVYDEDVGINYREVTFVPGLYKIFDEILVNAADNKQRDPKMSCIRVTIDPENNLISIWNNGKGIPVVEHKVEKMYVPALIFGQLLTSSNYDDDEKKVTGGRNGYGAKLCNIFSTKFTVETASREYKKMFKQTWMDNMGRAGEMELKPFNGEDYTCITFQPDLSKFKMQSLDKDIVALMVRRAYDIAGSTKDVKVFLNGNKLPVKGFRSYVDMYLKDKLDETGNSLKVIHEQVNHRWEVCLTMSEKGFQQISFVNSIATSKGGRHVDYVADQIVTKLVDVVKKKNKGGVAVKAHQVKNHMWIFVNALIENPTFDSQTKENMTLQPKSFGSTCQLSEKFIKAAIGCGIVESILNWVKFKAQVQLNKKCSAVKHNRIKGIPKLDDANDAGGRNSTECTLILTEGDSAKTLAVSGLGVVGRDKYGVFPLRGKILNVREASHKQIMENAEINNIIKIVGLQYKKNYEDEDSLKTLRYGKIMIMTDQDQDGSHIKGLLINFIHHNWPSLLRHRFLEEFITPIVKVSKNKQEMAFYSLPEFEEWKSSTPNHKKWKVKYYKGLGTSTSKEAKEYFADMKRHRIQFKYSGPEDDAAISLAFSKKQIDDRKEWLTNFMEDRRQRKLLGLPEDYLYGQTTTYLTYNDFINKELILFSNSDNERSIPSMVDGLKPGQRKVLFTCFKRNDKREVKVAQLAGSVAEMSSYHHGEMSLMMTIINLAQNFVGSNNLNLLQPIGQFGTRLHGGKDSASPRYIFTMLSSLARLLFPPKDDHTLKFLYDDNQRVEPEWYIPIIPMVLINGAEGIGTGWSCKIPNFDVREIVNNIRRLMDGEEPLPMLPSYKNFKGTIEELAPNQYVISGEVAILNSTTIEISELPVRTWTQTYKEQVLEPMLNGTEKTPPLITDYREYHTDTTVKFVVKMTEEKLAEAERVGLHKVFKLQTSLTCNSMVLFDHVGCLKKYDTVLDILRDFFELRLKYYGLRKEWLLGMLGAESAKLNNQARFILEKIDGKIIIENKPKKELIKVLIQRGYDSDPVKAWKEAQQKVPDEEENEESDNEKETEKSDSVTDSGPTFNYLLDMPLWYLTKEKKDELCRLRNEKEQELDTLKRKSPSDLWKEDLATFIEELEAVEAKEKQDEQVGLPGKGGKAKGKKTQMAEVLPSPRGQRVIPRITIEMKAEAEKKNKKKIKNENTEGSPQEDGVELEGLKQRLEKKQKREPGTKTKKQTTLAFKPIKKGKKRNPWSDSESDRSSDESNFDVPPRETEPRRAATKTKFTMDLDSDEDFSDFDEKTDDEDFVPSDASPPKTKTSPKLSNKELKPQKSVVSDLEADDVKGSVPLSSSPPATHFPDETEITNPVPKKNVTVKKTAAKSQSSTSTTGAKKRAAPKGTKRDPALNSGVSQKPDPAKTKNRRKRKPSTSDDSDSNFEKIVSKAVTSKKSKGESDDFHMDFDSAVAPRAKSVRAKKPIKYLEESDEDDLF

Biological target: T1, Topoisomerase II (Topo II) (Homo sapiens, UniProt P11388)
T1 construct: purchased TopoGEN, Inc., Columbus
Experiment: In vitro Topo II inhibitory assay (TopoGEN Topo II drug screening kit)
Type: biochemical
Conditions: 50% inhibition of Topoisomerase II activity
Experimental: Doxorubicin as a potent Topo II inhibitor was utilized as a reference drug.
The reported method described by Patra et al was applied using Topo II drug screening kit (TopoGEN, Inc., Columbus). Doxorubicin was used as a positive control.
A typical enzyme reaction was structured to determine Topo II activity. The reaction mixture included Topo II (2 μl), substrate super coiled pHot1 DNA (0.25 μg), 50 μg/ml test compound (2 μl), and assay buffer (4 μl). To start the reaction, the mixture was allowed to incubate in 37°C for 30 min. To terminate the reaction, a mixture of 10% sodium dodecylsulphate (2 μl) and proteinase K (50 μg/mL) was added at 37°C for 15 min. then incubated for 15 min at 37°C.
After that, the DNA was run on 1% agarose gel in BioRad gel electrophoresis system for 1–2 h followed by staining with GelRedTM stain for 2 h and destained for 15 min with TAE buffer. The gel was imaged via BioRad’s Gel DocTMEZ system. […] The results of IC50 values were calculated using the GraphPad Prism version 7. […]
analyzed for their Topo II inhibitory activities. […]
After that, the DNA was run on 1% agarose gel in BioRad gel electrophoresis system for 1–2 h followed by staining with GelRedTM stain for 2 h and destained for 15 min with TAE buffer. […] The results of IC50 values were calculated using the GraphPad Prism version 7. […]

In the case of `COc1cccc2c1C(=O)c1c(O)c3c(c(O)c1C2=O)C[C@@](O)(C(=O)CO)C[C@@H]3O[C@H]1C[C@H](N)[C@H](O)[C@H](C)O1` [Doxorubicin, reference compound], the IC50 is reported as 8.23 ± 0.4 µM.
